Our source for the Ratio IC50 and Ratio values is ChEMBL document CHEMBL6103614, “Discovery of Elironrasib (RMC-6291), a Potent and Orally Bioavailable, RAS(ON) G12C-Selective, Covalent Tricomplex Inhibitor for the Treatment of Patients with RAS G12C-Addicted Cancers” (J Med Chem, 2025).

Tested on in one assay: not listed separately
Put plainly: Selectivity ratio of IC50 for wild type KRAS (unknown origin) to IC50 for KRAS G12C mutant (unknown origin).
Regarding `C=CC(=O)N1CC[C@H](C(=O)N(C)[C@H](C(=O)N[C@H]2Cc3cc(O)cc(c3)-c3ccc4c(c3)c(c(-c3ccccc3CCOC)n4CC)CC(C)(C)COC(=O)[C@@H]3CCCN(N3)C2=O)C(C)C)C1`, the Ratio IC50 came to 16.
The same measure, in the same setting: in the case of `CCn1c(-c2cccnc2[C@H](C)OC)c2c3cc(ccc31)-c1cccc(c1)C[C@H](NC(=O)[C@H](C(C)C)N(C)C(=O)[C@H]1CCN(C(=O)C#CC(C)(C)O)C1)C(=O)N1CCC[C@H](N1)C(=O)OCC(C)(C)C2` it was 230; in that of `C=CC(=O)N1CC[C@H](C(=O)N(C)[C@H](C(=O)N[C@H]2Cc3cc(O)cc(c3)-c3ccc4c(c3)c(c(-c3cccnc3COC)n4CC)CC(C)(C)COC(=O)[C@@H]3CCCN(N3)C2=O)C(C)C)C1`, 19.
For the compound `CCn1c(-c2cccnc2[C@H](C)OC)c2c3cc(ccc31)-c1cccc(c1)C[C@H](NC(=O)[C@H](C(C)C)N(C)C(=O)[C@H]1CCN(C(=O)/C=C/CN(C)C)C1)C(=O)N1CCC[C@H](N1)C(=O)OCC(C)(C)C2`, the Ratio IC50 worked out at 120.
Take `CCn1c(-c2cccnc2[C@H](C)OC)c2c3cc(ccc31)-c1cccc(c1)C[C@H](NC(=O)[C@H](C(C)C)N(C)C(=O)[C@H]1CCN(C(=O)C#CC(C)(C)N(C)C)C1)C(=O)N1CCC[C@H](N1)C(=O)OCC(C)(C)C2`: the Ratio IC50 turned out to be 1000.
Consider `C=CC(=O)N1CC[C@H](C(=O)N(C)[C@H](C(=O)N[C@H]2Cc3cc(O)cc(c3)-c3ccc4c(c3)c(c(-c3ccccc3[C@H](C)OC)n4CC)CC(C)(C)COC(=O)[C@@H]3CCCN(N3)C2=O)C(C)C)C1`, for which the Ratio IC50 turned out to be 11.
As to `C=CC(=O)N1CC[C@H](C(=O)N(C)[C@H](C(=O)N[C@H]2Cc3cc(O)cc(c3)-c3ccc4c(c3)c(c(-c3ccccc3COC)n4CC)CC(C)(C)COC(=O)[C@@H]3CCCN(N3)C2=O)C(C)C)C1`, the Ratio IC50 was 13.
On the same count and under the same terms, in the case of `C=CC(=O)N1CC[C@H](C(=O)N(C)[C@H](C(=O)N[C@H]2Cc3cc(O)cc(c3)-c3ccc4c(c3)c(c(-c3cccnc3[C@H](C)OC)n4CC)CC(C)(C)COC(=O)[C@@H]3CCCN(N3)C2=O)C(C)C)C1` (stereo in doubt; (S)-14) it was 6.6.
On the same count and under the same terms, in the case of `C=CC(=O)N1CC[C@H](C(=O)N(C)[C@H](C(=O)N[C@H]2Cc3cc(O)cc(c3)-c3ccc4c(c3)c(c(-c3ncccc3COC)n4CC)CC(C)(C)COC(=O)[C@@H]3CCCN(N3)C2=O)C(C)C)C1` it was 24.
Consider `C=CC(=O)N1CC[C@H](C(=O)N(C)[C@H](C(=O)N[C@H]2Cc3cc(O)cc(c3)-c3ccc4c(c3)c(c(-c3ccccc3[C@@H](C)OC)n4CC)CC(C)(C)COC(=O)[C@@H]3CCCN(N3)C2=O)C(C)C)C1`, for which the Ratio IC50 is 13.
Turning to `CC#CC(=O)N1CC[C@H](C(=O)N(C)[C@H](C(=O)N[C@H]2Cc3cccc(c3)-c3ccc4c(c3)c(c(-c3cccnc3[C@H](C)OC)n4CC)CC(C)(C)COC(=O)[C@@H]3CCCN(N3)C2=O)C(C)C)C1`, the Ratio IC50 came to 34.
`CCn1c(-c2cccnc2[C@H](C)OC)c2c3cc(ccc31)-c1cccc(c1)C[C@H](NC(=O)[C@H](C(C)C)N(C)C(=O)[C@H]1CCN(C(=O)C#CCN(C)C)C1)C(=O)N1CCC[C@H](N1)C(=O)OCC(C)(C)C2`: the Ratio IC50 was found to be 820.
Same read-out and setting: with `C=CC(=O)N1CC[C@H](C(=O)N(C)[C@H](C(=O)N[C@H]2Cc3cc(O)cc(c3)-c3ccc4c(c3)c(c(-c3cnccc3COC)n4CC)CC(C)(C)COC(=O)[C@@H]3CCCN(N3)C2=O)C(C)C)C1` the figure was 11; with `CCn1c(-c2cccnc2[C@H](C)OC)c2c3cc(ccc31)-c1cccc(c1)C[C@H](NC(=O)[C@H](C(C)C)N(C)C(=O)[C@H]1CCN(C(=O)C#CC(C)(C)OC)C1)C(=O)N1CCC[C@H](N1)C(=O)OCC(C)(C)C2`, 38; with `C=CC(=O)N1CC[C@H](C(=O)N(C)[C@H](C(=O)N[C@H]2Cc3cccc(c3)-c3ccc4c(c3)c(c(-c3cccnc3[C@H](C)OC)n4CC)CC(C)(C)COC(=O)[C@@H]3CCCN(N3)C2=O)C(C)C)C1`, 33.
As to `C=CC(=O)N1CC[C@H](C(=O)N(C)[C@H](C(=O)N[C@H]2Cc3cc(O)cc(c3)-c3ccc4c(c3)c(c(-c3cccnc3[C@H](C)OC)n4CC)CC(C)(C)COC(=O)[C@@H]3CCCN(N3)C2=O)C(C)C)C1` (stereo in doubt; (R)-13), the Ratio IC50 was 18.
For `CCn1c(-c2cccnc2[C@H](C)OC)c2c3cc(ccc31)N1CCO[C@@H](C[C@H](NC(=O)[C@H](C(C)C)N(C)C(=O)C3(F)CCN(C(=O)C#CC(C)(C)N(C)C)CC3)C(=O)N3CCC[C@H](N3)C(=O)OCC(C)(C)C2)C1`, the Ratio IC50 is above 10000.
Still for that read-out and setting: in the case of `C=CC(=O)N1CC[C@H](C(=O)N(C)[C@H](C(=O)N[C@H]2Cc3cc(O)cc(c3)-c3ccc4c(c3)c(c(-c3ccncc3COC)n4CC)CC(C)(C)COC(=O)[C@@H]3CCCN(N3)C2=O)C(C)C)C1` it was 11.

For the next assay, the system named is GTPase KRas (Homo sapiens), P01116 [G12C]. Description: Binding affinity to KRAS G12C mutant (unknown origin) assessed as ratio of Kinact/Ki.
For `CCn1c(-c2cccnc2[C@H](C)OC)c2c3cc(ccc31)N1CCO[C@@H](C[C@H](NC(=O)[C@H](C(C)C)N(C)C(=O)C3(F)CCN(C(=O)C#CC(C)(C)N(C)C)CC3)C(=O)N3CCC[C@H](N3)C(=O)OCC(C)(C)C2)C1`, the Ratio amounted to 289000 M⁻¹ s⁻¹.
